## Measured affinities in a library of Ab-14 heavy chain variants

The measurements come from Li et al. 2023 (doi:10.1038/s41467-023-39022-2) through the FLAb antibody collection.

All variants were tested on one target, the spike HR2 peptide PDVDLGDISGINAS (SARS-CoV-2).

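This is the validation round: designs drawn from the data on random variants, tested in the same kind of assay. Several design methods are mixed in this list. The assay is AlphaSeq: two haploid yeast populations carry antibody and antigen on their surface. Mating (16 h, 30 °C) was followed by selection of diploids and sequencing of their barcodes. The ratio of observed to expected reads was calibrated, replicate by replicate, on BCL2-family standards whose Kd was known from biolayer interferometry. Each pool was mated in six replicate cultures.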

Each scFv is VH, a 15-residue (Gly4Ser)3 linker, VL, as in the parent Ab-14, and differs from it in the CDRs of the heavy chain only.
VH: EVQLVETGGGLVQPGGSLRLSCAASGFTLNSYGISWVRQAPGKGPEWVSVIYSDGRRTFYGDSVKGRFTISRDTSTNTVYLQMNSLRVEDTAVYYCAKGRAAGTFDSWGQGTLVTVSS
VL: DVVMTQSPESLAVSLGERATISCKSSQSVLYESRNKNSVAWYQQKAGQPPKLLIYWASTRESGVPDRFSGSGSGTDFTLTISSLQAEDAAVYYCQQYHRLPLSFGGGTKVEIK

Each variant is given by its three heavy chain CDRs, as the data file delimits them; those of the parent are GFTLNSYGIS, VIYSDGRRTFYGDSVK, GRAAGTFDS.
Affinities are written as log10 Kd with Kd in nM; a lower number is a better binder.
"n.d." marks a missing value. The strain was present, yet no cells mated with the target were sequenced in that replicate, which points to weak or no binding.

CDR-H1,CDR-H2,CDR-H3,log10 Kd (nM) by replicate,signal with controls
GFNLKSYGIS,VIYSDGRRTFYGDSVK,GRAAGTFDS,1.17 / 0.77 / 1.82 / 2.88 / 0.73 / 1.11,0/18
GFHLNSYGIS,VIYSDGRRTFYGDSVK,GRRAGTFDS,n.d. / n.d. / n.d. / n.d. / n.d. / n.d.,0/18
GFDLNEYGIS,VIYADGKRYHYTDSVK,GGVVGKVLY,n.d. / n.d. / n.d. / n.d. / n.d. / n.d.,0/18
GFNLDEYGIS,VIYADGRRTFYQDSVK,GEVAGTFDA,-0.34 / -0.75 / -0.45 / -0.52 / -0.61 / -0.37,0/18
GFTLNSYGIS,VIYSDGRRTFYGDQVK,GRAAGTPDS,n.d. / n.d. / n.d. / n.d. / n.d. / n.d.,0/18
GFSLNSYGIS,VIYSDGRRTMYTDSVK,GQAAGTFDS,0.73 / 0.96 / 0.60 / 0.63 / 0.46 / 0.68,0/18
GFTLDSYGIS,VIYSDGRRTFYGDSVK,GKAAGTFDM,1.20 / 0.77 / 0.51 / 0.27 / 0.55 / 0.63,0/18
GFDLNEYGIS,VIYADGMRTAYADNVK,GGNAGTFDI,1.15 / -0.18 / 0.09 / 0.70 / 0.32 / 0.90,0/18
GFELNSYGIS,VIYSDGRRTFYVDSVK,GQTAGTFDS,1.83 / 0.74 / 0.93 / 1.19 / 0.58 / 0.91,1/18 (2.30)
YFNLNSYGIS,VIYSDGRRTFYIDSVK,GEAAGTFDS,n.d. / n.d. / n.d. / n.d. / 3.33 / n.d.,0/18
GFDLNEYGIS,VIYADGRRTFYSDSVK,GQVAGTFDK,1.36 / -1.51 / -1.96 / -1.07 / -1.22 / -1.10,0/18
GFELNEYGIS,VIYSDGRRTFYSDSVK,GQPAGTFDS,-0.11 / 0.03 / -0.13 / -0.18 / -0.11 / 0.13,0/18
GFDLNEYGIS,VIYADGMRTAYSDKVK,GNQAGTFDV,-0.57 / -0.33 / -0.46 / -0.70 / -0.17 / -0.32,0/18
GFTLNSYGIS,VIYSDGRRTFYIDSVK,GRAAGFFDS,n.d. / n.d. / n.d. / n.d. / n.d. / n.d.,0/18
GFDLNEYGIS,VIYADGSRTAYADDVK,GNVAGTFDI,-0.24 / -0.34 / -0.32 / -0.62 / -0.16 / -0.13,0/18
GFSLNSYGIS,VIYSDGRRTFYSDSVK,GRAAGFFDS,n.d. / n.d. / n.d. / n.d. / n.d. / n.d.,0/18
GFDLNSYGIS,VIYSDGRRTFYADPVK,GKTAGTFDS,-0.12 / -0.11 / -0.36 / -0.45 / 0.54 / 0.13,1/18 (2.63)
GFTLNSYGIS,VIYSDGRRTFYSDSVK,GRAAGTFNS,n.d. / n.d. / n.d. / n.d. / n.d. / n.d.,0/18
GFDLNEYGIS,VIYADGMRKAYADNVK,GNNAGTFDV,-0.39 / -0.58 / -0.47 / -0.53 / -0.49 / -0.38,0/18
GYNINSYGIS,VIYADGRRNAYGDSVK,GRAADTFDS,n.d. / n.d. / 1.93 / n.d. / n.d. / n.d.,0/18
GFWLNSYGIS,VIYSDGRRTFYADSVK,CTAAGTFDS,n.d. / n.d. / n.d. / n.d. / n.d. / n.d.,0/18
GFDLNEYGIS,VIYADGKRTFYSDSVK,GNTAGTFDV,0.38 / -0.16 / 0.13 / -0.05 / -0.10 / 0.33,1/18 (1.28)
GKSLDEYGIS,VIYADGLRKEYADSVK,GQFDDAMDL,n.d. / n.d. / n.d. / n.d. / n.d. / n.d.,1/18 (2.79)
GFSLDEYGIS,VIYADGMRTAYTADVK,GVKSEDVVT,n.d. / n.d. / n.d. / 1.49 / n.d. / n.d.,0/18
GFTLNSYGIS,VIYSDGRRTFYGDSVK,GRAAGTFVS,n.d. / n.d. / n.d. / n.d. / n.d. / n.d.,0/18
GFGLNEYGIS,VIYSDGRRTFYEDDVK,GRTAGTFDS,0.41 / 0.80 / 0.53 / 0.59 / 0.57 / 0.99,0/18
GFDLNEYGIS,VIYADGSRTVYADSVK,GNVAGTFDQ,0.46 / -0.28 / -0.38 / -0.31 / -0.04 / -0.15,1/18 (1.83)
GFDISEYGIS,VIYADGKKTQFVNTVK,GELGGTLDV,n.d. / n.d. / n.d. / n.d. / n.d. / n.d.,0/18
GFSLNSYGIS,VIYSDGRRTFYKDSVK,GMTAGTFDS,0.35 / 0.19 / -0.04 / 0.34 / 0.26 / 0.55,0/18
GFNLNEYGIS,VIYADGQRKFYADSVK,GNTAGTFDV,-0.41 / -0.59 / -0.53 / -0.78 / -0.53 / -0.59,0/18

The first 4 variants above that were never detected:

CDR-H1,CDR-H2,CDR-H3,log10 Kd (nM) by replicate,signal with controls
GFHLNSYGIS,VIYSDGRRTFYGDSVK,GRRAGTFDS,n.d. / n.d. / n.d. / n.d. / n.d. / n.d.,0/18
GFDLNEYGIS,VIYADGKRYHYTDSVK,GGVVGKVLY,n.d. / n.d. / n.d. / n.d. / n.d. / n.d.,0/18
GFTLNSYGIS,VIYSDGRRTFYGDQVK,GRAAGTPDS,n.d. / n.d. / n.d. / n.d. / n.d. / n.d.,0/18
GFTLNSYGIS,VIYSDGRRTFYIDSVK,GRAAGFFDS,n.d. / n.d. / n.d. / n.d. / n.d. / n.d.,0/18

The authors averaged sequences with at least three values out of six and counted those with two or fewer as poor binders.
Empty control strains, which show no peptide, gave a signal in 1% of pairings with all heavy chain designs; the median was 2.08 and 95% of these signals were weaker than 0.84. No background was subtracted. Also given: how often the same scFv was detected with the empty control strains, with their mean in brackets.
Of ten entries with the parent sequence, four were seen in most replicates (averages 0.34 to 2.37), three in one and three in none, so single entries are noisy.
A sequence measured in both rounds can read differently, since the two assays cover different ranges.